Results: PubChem BioAssay AID1224865 (Sanford-Burnham Center for Chemical Genomics, 2016)
Only a part is listed here, and it is no random draw. Calls of active or inactive are those of the source. No stated cut-off is given here; in the data, active means activity change above about 30% (passing the limit was not always enough); inactive means the rest.

Protein sequences, listed by entry. Tags and fused reporters are not part of them.
UniProt P41235, whole entry: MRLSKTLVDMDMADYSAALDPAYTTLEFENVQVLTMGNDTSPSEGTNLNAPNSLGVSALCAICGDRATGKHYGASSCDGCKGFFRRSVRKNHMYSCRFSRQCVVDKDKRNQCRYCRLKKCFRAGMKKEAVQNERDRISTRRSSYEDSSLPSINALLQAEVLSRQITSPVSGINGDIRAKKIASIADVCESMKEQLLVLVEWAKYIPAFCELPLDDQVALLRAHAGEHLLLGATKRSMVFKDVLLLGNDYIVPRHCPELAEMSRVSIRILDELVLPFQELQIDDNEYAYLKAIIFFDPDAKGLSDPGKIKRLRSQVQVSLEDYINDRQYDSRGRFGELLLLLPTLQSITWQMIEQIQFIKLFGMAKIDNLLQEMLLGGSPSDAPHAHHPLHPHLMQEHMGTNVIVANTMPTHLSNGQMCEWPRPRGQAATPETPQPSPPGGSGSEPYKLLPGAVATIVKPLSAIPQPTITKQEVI

Biological target: Hepatocyte nuclear factor 4-alpha (Homo sapiens) (UniProt P41235)
Test: change in binding of human HNF4A to DNA, primary screen, biochemical, fluorescence polarization, FITC-DNA (AID 1224865)
Conditions: 1 h, at 10 µM, active compounds read high

SMILES	activity change
O=C(OCCN1CCN(CCOCc2ccccc2)CC1)C(O)(c1ccccc1)c1ccccc1	inactive: 2.41%
CP(=O)(Nc1ccccc1F)Oc1ccccc1 (centres undefined)	inactive: -4.1%
CCc1cc(O)c([N+](=O)[O-])c(C)c1[N+](=O)[O-]	inactive: 2.87%
CC(C)c1ccc(OP(C)(=O)Nc2ccc(SC(F)(F)F)cc2)cc1 (centres undefined)	inactive: -0.64%
CC(C)(C)C(=O)NC(Sc1ccccc1)C(Cl)(Cl)Cl (centres undefined)	inactive: -0.65%
CCOc1ccc(C2=NCC(CBr)S2)cc1 (centres undefined)	inactive: -0.66%
O=P1(Nc2nc3ccc(Cl)cc3s2)COc2ccccc2O1 (centres undefined)	inactive: 4.59%
O=[N+]([O-])c1cc([N+](=O)[O-])c(Nc2ccc(Cl)cc2)c([N+](=O)[O-])c1	inactive: 1.58%
CP(=O)(Nc1ccccc1)Oc1ccc(F)cc1 (centres undefined)	inactive: -1.44%
CN(C)C(=O)Oc1noc2ccccc12	inactive: -0.35%
O=[N+]([O-])c1cc([N+](=O)[O-])c(OC2CCCCC2O)c([N+](=O)[O-])c1 (centres undefined)	inactive: 0.57%
CCCCCOc1ccc(NP(C)(=O)Oc2ccc(Cl)cc2Cl)cc1 (centres undefined)	inactive: 4.34%
O=c1c2cc([N+](=O)[O-])ccc2[nH]c2c([N+](=O)[O-])cc([N+](=O)[O-])cc12	inactive: 7.06%
Cc1ccccc1OP(=O)(Nc1ccccn1)Oc1ccccc1C	inactive: -2.28%
CC(NC(=O)COC(=O)C(O)(c1ccccc1)c1ccccc1)c1ccccc1 (centres undefined)	inactive: -3.57%
CC(=O)NC(SC(=S)N(CC(C)C)CC(C)C)C(Cl)(Cl)Cl (centres undefined)	inactive: -0.15%
Cc1ccc(OP(=O)(Nc2ccccn2)Oc2ccc(C)cc2)cc1	inactive: 1.41%
Cc1c([N+](=O)[O-])cc([N+](=O)[O-])c(Br)c1[N+](=O)[O-]	inactive: -2.96%
COC(=O)c1cc2c(s1)N=C(c1ccccc1)N(C)P2(=O)N1CCOCC1 (centres undefined)	inactive: 0.3%
CCN(CC)CCCOC(=O)C(O)(c1ccccc1)C1CCCCC1 (centres undefined)	inactive: 1.72%

SMILES	activity change
CCC(=O)N1C2C3N(C(=O)CC)C1C1N(C(=O)CC)C(C(N1C(=O)CC)N3C(=O)CC)N2C(=O)CC	inactive: 2.77%
O=C(OC1CN2CCC1CC2)c1ccccc1 (centres undefined)	inactive: 5.17%
CCOC(=O)c1ccc(NP(C)(=O)Oc2ccc(F)cc2)cc1 (centres undefined)	inactive: -0.54%
O=P1(N(CCCl)CCCl)OCCC2CCCCN21 (centres undefined)	inactive: 5.92%
COc1ccc(OP(C)(=O)Nc2ccc(SC(F)(F)F)cc2)cc1 (centres undefined)	inactive: 0.5%
CCNC(=S)/N=C(\N)N[N+](=O)[O-]	inactive: -0.95%
O=C(NC1CCS(=O)(=O)C1)NP(=S)(Oc1ccccc1)Oc1ccccc1 (centres undefined)	inactive: 1.8%
Cc1ccc(NP(=O)(Oc2cccc(C)c2)Oc2cccc(C)c2)nc1	inactive: 6.59%
CCN(CC)CCCNc1ccccc1[N+](=O)[O-].O=[N+]([O-])c1cc([N+](=O)[O-])c(O)c([N+](=O)[O-])c1	inactive: -0.03%
c1ccc(-c2nn[nH]n2)c(-c2nn[nH]n2)c1	inactive: 0.65%
Nc1ccc([As](=O)(O)c2ccc([N+](=O)[O-])cc2)cc1	inactive: -1.16%
C(Cc1nn[nH]n1)Cc1nn[nH]n1	inactive: -0.59%
Cc1c(C(c2ccc3c(c2)OCO3)c2c(C)n(C)n(-c3ccccc3)c2=O)c(=O)n(-c2ccccc2)n1C.O=[N+]([O-])c1cc([N+](=O)[O-])c(O)c([N+](=O)[O-])c1	inactive: 4.68%
O=C(OC1CN2CCC1CC2)c1cccc(Cl)c1 (centres undefined)	inactive: 2.61%
O=[N+]([O-])c1ccc(O)c(/C=N/Nc2ccc([N+](=O)[O-])cc2[N+](=O)[O-])c1	inactive: -7.07%
O=[N+]([O-])c1ccc(OP2(=O)COCCO2)cc1 (centres undefined)	inactive: -0.13%
CC(=O)NC(SC(=S)N(C)C)C(Cl)(Cl)Cl (centres undefined)	inactive: -2.74%
O=[N+]([O-])c1ncn(CCn2cnc([N+](=O)[O-])n2)n1	inactive: -0.43%
Cc1cc(-c2cccc3ccccc23)c(C)cn1.O=[N+]([O-])c1cc([N+](=O)[O-])c(O)c([N+](=O)[O-])c1	inactive: 0.94%
O=[N+]([O-])c1cc([N+](=O)[O-])c(NCC2CCS(=O)(=O)C2)c([N+](=O)[O-])c1 (centres undefined)	inactive: -0.28%

SMILES	activity change
O=[As](O)(c1ccccc1)c1ccc(O)cc1	inactive: -1.19%
C[C@H]1OP(=O)(Oc2ccccc2)[C@H](O)[C@H](O)[C@H]1N=[N+]=[N-] (some centres undefined)	inactive: -1.13%
CN(C)CCOC(=O)C(O)(c1ccccc1)C1CCCCC1 (centres undefined)	inactive: -0.61%
O=P(Nc1nc2ccccc2s1)(c1ccccc1)c1ccccc1	inactive: 6.02%
COc1ccc(NP(C)(=O)Oc2ccccc2OC)cc1 (centres undefined)	inactive: 0.4%
COc1ccc(N)c([N+](=O)[O-])c1[N+](=O)[O-]	inactive: -7.98%
COc1ccc(OP(C)(=O)Nc2cccc(Br)c2)cc1 (centres undefined)	inactive: -0.07%
O=P(Nc1ccccn1)(c1ccc(Br)cc1)c1ccc(Br)cc1	inactive: 3.06%
CN(C)C1(CNC(=O)c2ccc(Cl)c(S(N)(=O)=O)c2)CCCCC1	inactive: 3.21%
Cc1ccccc1NP(C)(=O)Nc1ccccc1C	inactive: -4.44%
O=[N+]([O-])c1cc([N+](=O)[O-])c(C(F)(F)F)c([N+](=O)[O-])c1O	inactive: 5.64%
CP(=O)(Nc1ccc2c(c1)OCCO2)Oc1ccccc1 (centres undefined)	inactive: 1.24%
CCOP(C)(=S)SCC(=O)NC(C)(CC)C(=O)O (centres undefined)	inactive: 0.75%
c1nnnn1CCn1cnnn1	inactive: 0.41%
CP(=O)(Nc1ccc(SC(F)(F)F)cc1)Oc1ccc(F)cc1 (centres undefined)	inactive: -2.77%
CC(C)C(=O)NC(Sc1ccccc1)C(Cl)(Cl)Cl (centres undefined)	inactive: 3.14%
O=P(Nc1nccs1)(c1ccccc1)c1ccccc1	inactive: -0.14%
CN(C)C(=O)OCCc1n(C)cc[n+]1C	inactive: -0.71%
CN(C)C(=O)c1c([N+](=O)[O-])cc([N+](=O)[O-])cc1[N+](=O)[O-]	inactive: 1.07%
